The target in this test is T1, Integrin alpha-3 (Homo sapiens, UniProt P26006).
T1 sequence (P26006 whole entry): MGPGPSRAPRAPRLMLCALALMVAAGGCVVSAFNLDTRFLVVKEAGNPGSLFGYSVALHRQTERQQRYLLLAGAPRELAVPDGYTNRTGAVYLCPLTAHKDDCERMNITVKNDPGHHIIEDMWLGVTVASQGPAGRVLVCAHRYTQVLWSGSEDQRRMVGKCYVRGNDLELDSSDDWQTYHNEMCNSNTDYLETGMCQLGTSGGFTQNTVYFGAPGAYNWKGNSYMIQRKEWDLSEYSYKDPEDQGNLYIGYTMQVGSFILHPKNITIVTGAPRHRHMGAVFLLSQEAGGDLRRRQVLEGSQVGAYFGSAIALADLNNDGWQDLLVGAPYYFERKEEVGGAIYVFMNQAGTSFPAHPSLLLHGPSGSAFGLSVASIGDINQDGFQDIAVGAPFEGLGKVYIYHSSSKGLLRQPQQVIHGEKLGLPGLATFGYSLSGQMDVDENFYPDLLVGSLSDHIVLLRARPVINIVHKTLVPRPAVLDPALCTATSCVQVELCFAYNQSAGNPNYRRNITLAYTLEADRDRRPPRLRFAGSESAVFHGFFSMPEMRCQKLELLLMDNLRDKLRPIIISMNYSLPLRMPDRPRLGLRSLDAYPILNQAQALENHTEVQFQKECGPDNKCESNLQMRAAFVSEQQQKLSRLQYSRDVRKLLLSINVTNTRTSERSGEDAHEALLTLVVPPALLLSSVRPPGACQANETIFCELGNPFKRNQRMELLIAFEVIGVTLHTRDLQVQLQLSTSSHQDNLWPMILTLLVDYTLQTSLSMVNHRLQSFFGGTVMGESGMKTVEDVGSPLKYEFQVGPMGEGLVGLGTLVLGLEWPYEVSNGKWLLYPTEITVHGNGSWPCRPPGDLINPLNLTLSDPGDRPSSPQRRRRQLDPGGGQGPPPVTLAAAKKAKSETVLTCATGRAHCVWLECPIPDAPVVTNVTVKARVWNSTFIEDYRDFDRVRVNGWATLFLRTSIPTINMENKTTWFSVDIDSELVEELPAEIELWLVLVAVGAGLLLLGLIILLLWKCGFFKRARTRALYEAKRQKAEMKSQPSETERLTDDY
Description: Binding affinity to integrin alpha3beta1 expressed in human MDA-MB-231 cells by flow cytometry. The class given is cell-based. A general note: Flow cytometry measures light scatter and fluorescence of single cells or particles in a stream.

The source of these data is ChEMBL document CHEMBL1139325, “Discovery of targeting ligands for breast cancer cells using the one-bead one-compound combinatorial method” (J Med Chem, 2009).

With `CC(C)C[C@@H]1NC(=O)CNC(=O)[C@@H](CC(=O)O)NC(=O)[C@H](N)CSSC[C@H](C(N)=O)NC(=O)[C@H](CC(N)=O)NC(=O)[C@@H]2C[C@@H](O)CN2C(=O)CNC1=O`, the affinity, expressed as Kd, was 400 nM.
